Here are results for three molecules from patent publication US20250171423A1, “PHARMACEUTICAL COMPOUNDS FOR THE TREATMENT OF COMPLEMENT MEDIATED DISORDERS” (Achillion Pharmaceuticals, Inc., priority 2020, published 2025).

Sequences of proteins named here, by UniProt entry; tags and fusion partners are left off. Residues count along the entry.
UniProt P09871, 438-688 limits assumed: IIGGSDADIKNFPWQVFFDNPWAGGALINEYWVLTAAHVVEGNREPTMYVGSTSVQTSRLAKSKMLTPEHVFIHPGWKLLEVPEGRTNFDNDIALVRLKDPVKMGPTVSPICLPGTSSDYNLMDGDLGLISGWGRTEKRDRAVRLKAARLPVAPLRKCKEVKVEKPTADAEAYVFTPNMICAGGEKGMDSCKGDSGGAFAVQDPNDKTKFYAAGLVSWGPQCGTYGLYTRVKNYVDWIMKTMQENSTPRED
UniProt P09871, 16-437 partner limits assumed: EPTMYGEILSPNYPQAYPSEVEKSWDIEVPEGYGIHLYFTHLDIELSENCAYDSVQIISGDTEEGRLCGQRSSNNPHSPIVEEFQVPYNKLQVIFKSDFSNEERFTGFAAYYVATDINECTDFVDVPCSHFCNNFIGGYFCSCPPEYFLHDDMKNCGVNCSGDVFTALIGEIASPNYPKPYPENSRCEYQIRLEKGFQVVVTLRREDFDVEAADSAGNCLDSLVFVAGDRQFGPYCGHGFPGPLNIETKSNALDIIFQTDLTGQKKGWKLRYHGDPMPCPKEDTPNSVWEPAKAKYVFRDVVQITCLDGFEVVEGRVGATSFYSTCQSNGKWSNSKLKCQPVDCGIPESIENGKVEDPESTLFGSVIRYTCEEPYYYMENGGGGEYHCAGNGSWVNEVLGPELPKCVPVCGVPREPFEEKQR

The structures appear in SMILES notation. Some results are limits rather than exact numbers.

The assay has as its target Human complement C1s enzyme (Homo sapiens, UniProt P09871). Kind of assay: Human C1s Enzyme Assay. The following applies: read-out: C1s Protease Activity; human C1s 1.16 nM, 5 min preincubation, substrate Z-L-Lys-SBzl 100 μM, A405. It is filed as biochemical. How it is done: The assay of Example 3 was used to determine the IC50's of the compounds. Other standard complement assays are also available.
Example 3. Human C1s Enzyme Assay
Human complement C1s enzyme (purified from human serum, Complement Technology, Inc.) at 1.16 nM final concentration was incubated with test compound at various concentrations for 5 min at room temperature in 50 mM Tris, 1 M NaCl, pH 7.5. A synthetic substrate Z-L-Lys-SBzl and DTNB (Ellman's reagent) were added to final concentrations of 100 μM each. Absorbance at 405 nm (A405) was recorded at 30 second intervals for 30 min using a microplate spectrophotometer. IC50 values were calculated by nonlinear regression of complement C1s reaction rates as a function of test compound concentration.
For the molecule `C[C@@]12C[C@@H]1N(C(=O)CNC(=O)c1ccc(Oc3ccccc3)cc1)[C@H](C(=O)NCc1cc(C(=N)NC(N)=O)cs1)C2`, the IC50 is less than 100 nM.
For `C[C@@]12C[C@@H]1N(C(=O)CNC(=O)c1ccc(OCc3ccccc3)cc1)[C@H](C(=O)NCc1cc(C(=N)N)cs1)C2`, the IC50 was less than 100 nM.
Take `C[C@@]12C[C@@H]1N(C(=O)CNC(=O)c1ccc(Oc3ccccc3)cc1)[C@H](C(=O)NCc1cc(C(=N)NC#N)cs1)C2`: the IC50 is more than 1000 nM.
